The chains behind the UniProt entries cited, without tags or fusion partners. A line that says so, or that is headed by a name, gives the form on record, which may keep a tag or linker.
UniProt P36544, with tags, fused parts or gaps L131G/Q139L/Y217F/T225I/M226I limits assumed: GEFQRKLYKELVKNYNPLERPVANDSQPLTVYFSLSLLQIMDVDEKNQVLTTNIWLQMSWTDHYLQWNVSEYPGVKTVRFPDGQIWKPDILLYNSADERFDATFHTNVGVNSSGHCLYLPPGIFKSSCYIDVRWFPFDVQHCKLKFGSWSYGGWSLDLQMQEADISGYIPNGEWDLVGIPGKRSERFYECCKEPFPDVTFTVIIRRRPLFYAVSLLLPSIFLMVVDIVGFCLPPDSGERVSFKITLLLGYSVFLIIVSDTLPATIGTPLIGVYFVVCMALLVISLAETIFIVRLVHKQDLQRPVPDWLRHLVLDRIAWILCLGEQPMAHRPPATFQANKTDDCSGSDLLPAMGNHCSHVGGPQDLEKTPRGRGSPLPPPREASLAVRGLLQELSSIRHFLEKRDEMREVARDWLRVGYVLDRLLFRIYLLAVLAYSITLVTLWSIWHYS
UniProt P36544, with tags, fused parts or gaps L131G/Q139L/V154I/R155Y/W156N/Y217F/T225I/M226I limits assumed: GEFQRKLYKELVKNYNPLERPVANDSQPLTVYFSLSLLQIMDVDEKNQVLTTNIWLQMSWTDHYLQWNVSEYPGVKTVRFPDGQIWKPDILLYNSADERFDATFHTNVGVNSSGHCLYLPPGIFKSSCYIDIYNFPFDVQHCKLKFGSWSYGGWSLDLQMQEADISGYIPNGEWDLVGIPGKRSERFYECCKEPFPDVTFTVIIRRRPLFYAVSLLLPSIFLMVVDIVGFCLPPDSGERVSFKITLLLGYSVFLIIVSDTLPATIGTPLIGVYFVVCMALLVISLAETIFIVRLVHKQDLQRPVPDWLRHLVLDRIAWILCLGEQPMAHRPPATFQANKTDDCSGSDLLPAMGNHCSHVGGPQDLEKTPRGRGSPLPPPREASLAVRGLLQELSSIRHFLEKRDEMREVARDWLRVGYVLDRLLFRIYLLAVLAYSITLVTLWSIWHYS
UniProt P36544, with tags, fused parts or gaps L131G/Q139L/V154L/R155Y/W156Q/Y217F/T225I/M226I limits assumed: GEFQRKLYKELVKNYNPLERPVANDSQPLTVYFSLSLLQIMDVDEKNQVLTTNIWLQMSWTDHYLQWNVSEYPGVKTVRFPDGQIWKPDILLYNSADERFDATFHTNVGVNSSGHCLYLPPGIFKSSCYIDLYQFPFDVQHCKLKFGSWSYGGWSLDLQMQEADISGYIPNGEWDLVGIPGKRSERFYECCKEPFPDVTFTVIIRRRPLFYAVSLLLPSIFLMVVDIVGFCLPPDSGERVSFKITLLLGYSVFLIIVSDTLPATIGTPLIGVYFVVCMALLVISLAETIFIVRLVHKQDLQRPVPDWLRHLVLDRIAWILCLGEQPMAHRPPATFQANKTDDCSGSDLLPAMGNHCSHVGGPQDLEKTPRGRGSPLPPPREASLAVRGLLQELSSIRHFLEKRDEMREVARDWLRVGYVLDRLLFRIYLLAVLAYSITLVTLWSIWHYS
UniProt P36544, with tags, fused parts or gaps L131G/Q139L/W156N/Y217F/T225I/M226I limits assumed: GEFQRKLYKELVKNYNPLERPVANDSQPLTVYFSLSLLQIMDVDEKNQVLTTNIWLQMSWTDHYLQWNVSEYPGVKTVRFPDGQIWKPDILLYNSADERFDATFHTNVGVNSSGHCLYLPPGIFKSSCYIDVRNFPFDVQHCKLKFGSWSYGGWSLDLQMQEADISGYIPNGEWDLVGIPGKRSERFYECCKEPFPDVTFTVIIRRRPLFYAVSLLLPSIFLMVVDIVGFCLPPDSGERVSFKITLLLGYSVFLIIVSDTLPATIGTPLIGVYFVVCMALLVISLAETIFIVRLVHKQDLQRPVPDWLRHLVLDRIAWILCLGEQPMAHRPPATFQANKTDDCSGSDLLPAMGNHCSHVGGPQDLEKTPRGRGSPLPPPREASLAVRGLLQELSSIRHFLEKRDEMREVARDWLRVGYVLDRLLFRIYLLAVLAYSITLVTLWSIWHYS
UniProt P36544, with tags, fused parts or gaps L131G/Q139L/W156N/H163T/Y217F/T225I/M226I limits assumed: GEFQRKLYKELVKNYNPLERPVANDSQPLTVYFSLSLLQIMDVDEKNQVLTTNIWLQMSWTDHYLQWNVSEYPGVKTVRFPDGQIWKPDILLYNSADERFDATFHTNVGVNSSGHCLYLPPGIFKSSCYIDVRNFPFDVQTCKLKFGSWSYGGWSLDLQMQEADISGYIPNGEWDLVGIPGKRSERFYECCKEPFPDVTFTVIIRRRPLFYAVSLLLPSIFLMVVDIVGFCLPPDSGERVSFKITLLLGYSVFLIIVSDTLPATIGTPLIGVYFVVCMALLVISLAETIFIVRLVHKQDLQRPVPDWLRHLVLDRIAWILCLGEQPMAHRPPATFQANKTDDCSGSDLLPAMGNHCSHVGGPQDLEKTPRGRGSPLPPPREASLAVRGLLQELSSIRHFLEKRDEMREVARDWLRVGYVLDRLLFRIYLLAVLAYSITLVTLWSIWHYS
UniProt P36544, with tags, fused parts or gaps L131G/Q139L/H163A/Y217F/T225I/M226I limits assumed: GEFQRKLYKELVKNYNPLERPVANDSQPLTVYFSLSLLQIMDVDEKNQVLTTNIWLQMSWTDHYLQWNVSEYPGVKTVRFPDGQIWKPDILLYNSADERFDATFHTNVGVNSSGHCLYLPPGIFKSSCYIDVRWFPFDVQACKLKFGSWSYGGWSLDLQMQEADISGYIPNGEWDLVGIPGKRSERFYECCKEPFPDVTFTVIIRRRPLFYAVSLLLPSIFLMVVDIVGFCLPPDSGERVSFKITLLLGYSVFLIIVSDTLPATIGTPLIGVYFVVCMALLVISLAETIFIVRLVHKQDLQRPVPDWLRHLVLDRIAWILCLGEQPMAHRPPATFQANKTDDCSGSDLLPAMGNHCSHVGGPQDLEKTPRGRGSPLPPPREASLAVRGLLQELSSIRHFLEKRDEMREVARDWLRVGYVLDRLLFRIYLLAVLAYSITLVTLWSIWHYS
UniProt P36544, with tags, fused parts or gaps L131G/Q139L/H163D/Y217F/T225I/M226I limits assumed: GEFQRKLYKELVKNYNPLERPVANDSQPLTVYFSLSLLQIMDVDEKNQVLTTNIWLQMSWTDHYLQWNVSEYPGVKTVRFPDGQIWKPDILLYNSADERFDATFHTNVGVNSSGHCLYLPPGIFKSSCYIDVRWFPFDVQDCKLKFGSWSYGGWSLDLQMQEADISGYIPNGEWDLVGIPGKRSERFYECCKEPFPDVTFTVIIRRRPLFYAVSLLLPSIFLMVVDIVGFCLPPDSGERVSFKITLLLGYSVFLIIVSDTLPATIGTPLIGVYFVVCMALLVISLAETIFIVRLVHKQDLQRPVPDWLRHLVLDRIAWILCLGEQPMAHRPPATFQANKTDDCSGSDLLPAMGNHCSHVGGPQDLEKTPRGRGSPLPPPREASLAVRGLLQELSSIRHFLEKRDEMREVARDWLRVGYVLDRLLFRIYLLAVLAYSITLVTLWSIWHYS
UniProt P36544, with tags, fused parts or gaps L131G/Q139L/H163F/Y217F/T225I/M226I limits assumed: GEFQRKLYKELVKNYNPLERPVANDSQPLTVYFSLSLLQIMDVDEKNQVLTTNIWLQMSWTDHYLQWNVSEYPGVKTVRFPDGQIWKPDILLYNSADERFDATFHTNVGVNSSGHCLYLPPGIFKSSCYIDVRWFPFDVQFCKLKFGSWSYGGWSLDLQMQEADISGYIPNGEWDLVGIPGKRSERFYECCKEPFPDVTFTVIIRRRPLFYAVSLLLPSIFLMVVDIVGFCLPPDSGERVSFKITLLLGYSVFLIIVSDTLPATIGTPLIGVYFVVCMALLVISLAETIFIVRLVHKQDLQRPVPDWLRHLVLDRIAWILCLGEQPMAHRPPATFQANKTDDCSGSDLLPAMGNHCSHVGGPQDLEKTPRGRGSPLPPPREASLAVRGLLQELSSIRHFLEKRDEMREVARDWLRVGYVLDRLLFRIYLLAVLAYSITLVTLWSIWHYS
UniProt P36544, with tags, fused parts or gaps L131G/Q139L/H163K/Y217F/T225I/M226I limits assumed: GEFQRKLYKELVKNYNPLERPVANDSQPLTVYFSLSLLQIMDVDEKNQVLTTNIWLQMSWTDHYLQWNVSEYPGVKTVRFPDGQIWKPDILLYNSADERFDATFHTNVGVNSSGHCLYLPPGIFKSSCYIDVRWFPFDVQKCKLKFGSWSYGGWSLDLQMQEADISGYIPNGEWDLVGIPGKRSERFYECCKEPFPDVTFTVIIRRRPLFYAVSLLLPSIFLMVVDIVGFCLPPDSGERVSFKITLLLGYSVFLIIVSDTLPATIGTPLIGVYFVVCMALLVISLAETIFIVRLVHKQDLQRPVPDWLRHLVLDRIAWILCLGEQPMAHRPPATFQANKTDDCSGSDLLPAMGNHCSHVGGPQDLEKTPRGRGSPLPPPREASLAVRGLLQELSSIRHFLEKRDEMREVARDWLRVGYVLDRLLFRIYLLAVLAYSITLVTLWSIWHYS
UniProt P36544, with tags, fused parts or gaps L131G/Q139L/H163N/Y217F/T225I/M226I limits assumed: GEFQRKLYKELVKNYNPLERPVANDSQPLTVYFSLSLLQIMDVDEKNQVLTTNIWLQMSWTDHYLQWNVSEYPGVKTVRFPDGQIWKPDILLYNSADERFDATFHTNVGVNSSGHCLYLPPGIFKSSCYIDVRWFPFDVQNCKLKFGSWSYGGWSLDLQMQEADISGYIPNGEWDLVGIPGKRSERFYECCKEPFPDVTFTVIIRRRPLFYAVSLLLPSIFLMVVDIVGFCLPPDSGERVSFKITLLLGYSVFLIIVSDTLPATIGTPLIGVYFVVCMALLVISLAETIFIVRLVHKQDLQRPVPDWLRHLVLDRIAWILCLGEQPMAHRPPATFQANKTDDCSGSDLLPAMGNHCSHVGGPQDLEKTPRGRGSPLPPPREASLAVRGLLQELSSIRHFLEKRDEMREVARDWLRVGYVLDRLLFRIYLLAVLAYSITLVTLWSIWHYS
UniProt P36544, with tags, fused parts or gaps L131G/Q139L/H163R/Y217F/T225I/M226I limits assumed: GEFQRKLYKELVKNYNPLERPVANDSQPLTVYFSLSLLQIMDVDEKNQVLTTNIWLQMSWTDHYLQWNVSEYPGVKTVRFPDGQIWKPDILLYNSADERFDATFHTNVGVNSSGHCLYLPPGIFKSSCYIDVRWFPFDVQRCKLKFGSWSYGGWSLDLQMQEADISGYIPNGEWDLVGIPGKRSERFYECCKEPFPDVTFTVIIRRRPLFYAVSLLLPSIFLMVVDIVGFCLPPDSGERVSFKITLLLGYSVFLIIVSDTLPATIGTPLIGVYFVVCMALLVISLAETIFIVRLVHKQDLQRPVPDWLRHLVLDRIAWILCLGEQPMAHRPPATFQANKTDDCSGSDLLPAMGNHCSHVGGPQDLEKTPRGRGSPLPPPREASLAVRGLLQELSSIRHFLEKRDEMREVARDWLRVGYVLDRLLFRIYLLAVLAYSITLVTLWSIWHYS
UniProt P36544, with tags, fused parts or gaps L131G/Q139L/H163S/Y217F/T225I/M226I limits assumed: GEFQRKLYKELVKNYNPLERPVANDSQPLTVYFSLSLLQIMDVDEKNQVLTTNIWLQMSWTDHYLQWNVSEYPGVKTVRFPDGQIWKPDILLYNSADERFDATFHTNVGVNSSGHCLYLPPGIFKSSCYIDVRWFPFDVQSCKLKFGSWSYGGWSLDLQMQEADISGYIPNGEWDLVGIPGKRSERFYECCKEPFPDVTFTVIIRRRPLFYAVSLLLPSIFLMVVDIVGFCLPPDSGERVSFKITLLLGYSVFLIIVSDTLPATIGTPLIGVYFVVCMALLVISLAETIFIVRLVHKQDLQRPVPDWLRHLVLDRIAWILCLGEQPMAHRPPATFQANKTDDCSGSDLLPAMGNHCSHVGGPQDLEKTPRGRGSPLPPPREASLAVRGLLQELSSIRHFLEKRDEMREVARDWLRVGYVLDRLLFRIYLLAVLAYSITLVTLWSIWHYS
UniProt P36544, with tags, fused parts or gaps L131G/Q139L/H163T/Y217F/T225I/M226I limits assumed: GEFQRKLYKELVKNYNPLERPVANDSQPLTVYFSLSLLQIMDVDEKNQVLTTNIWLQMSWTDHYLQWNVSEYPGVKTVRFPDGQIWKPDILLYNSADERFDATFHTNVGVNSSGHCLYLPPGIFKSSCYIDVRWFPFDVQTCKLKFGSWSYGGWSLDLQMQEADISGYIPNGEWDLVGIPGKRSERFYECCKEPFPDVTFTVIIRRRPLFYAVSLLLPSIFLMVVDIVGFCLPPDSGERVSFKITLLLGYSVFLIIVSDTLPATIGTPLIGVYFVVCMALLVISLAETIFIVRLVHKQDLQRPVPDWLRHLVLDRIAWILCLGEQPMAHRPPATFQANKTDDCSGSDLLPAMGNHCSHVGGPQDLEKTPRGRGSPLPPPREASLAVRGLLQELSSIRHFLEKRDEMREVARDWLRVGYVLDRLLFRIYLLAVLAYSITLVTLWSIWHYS
UniProt P36544, with tags, fused parts or gaps L131G/Q139L/H163V/Y217F/T225I/M226I limits assumed: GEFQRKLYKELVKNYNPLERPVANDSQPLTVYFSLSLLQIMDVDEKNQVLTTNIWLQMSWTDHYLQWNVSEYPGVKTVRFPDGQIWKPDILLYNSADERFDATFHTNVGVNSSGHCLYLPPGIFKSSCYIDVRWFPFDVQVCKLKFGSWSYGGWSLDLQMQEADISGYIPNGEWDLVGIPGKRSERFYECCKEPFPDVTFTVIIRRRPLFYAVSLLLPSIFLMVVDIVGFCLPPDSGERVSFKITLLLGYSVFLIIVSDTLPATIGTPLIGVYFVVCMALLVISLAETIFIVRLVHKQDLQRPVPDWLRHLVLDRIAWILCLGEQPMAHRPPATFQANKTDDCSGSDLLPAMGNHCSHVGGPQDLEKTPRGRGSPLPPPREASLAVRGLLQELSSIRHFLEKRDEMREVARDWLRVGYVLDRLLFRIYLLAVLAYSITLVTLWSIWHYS

According to patent US20250145687A1, “MODIFIED LIGAND-GATED ION CHANNELS AND METHODS OF USE” (Howard Hughes Medical Institute, priority 2022, published 2025):

Tests used:
[1] = target: T1, PSAM4-5HT3 (α7-5HT3^L131G,Q139L,Y217F) (Homo sapiens, UniProt P36544, L131G/M226I/Q139L/T225I/Y217F); experiment: EC50 dose response of LGIC ligands on PSAM4-5HT3; type: cell-based; conditions: read-out: EC50s (SEM) for additional mutations of α7^L131G, Q139L, Y217F -5HT3
T1 construct: expressed in transfected cells; host or cells: HEK 293

[2] = target: T2, α7^L131G,Q139L,Y217F-5HT3 V154I, R155Y, W156N (Homo sapiens, UniProt P36544, L131G/M226I/Q139L/R155Y/T225I/V154I/W156N/Y217F); experiment: EC50 dose response, PSAM4-5HT3 with additional mutations; type: cell-based; conditions: read-out: EC50s (SEM) for additional mutations of α7^L131G, Q139L, Y217F -5HT3
T2 construct: expressed in transfected cells; host or cells: HEK 293

[3] = target: T3, α7^L131G,Q139L,Y217F-5HT3 V154L, R155Y, W156Q (Homo sapiens, UniProt P36544, L131G/M226I/Q139L/R155Y/T225I/V154L/W156Q/Y217F); experiment: as above; type: cell-based; conditions: read-out: EC50s (SEM) for additional mutations of α7^L131G, Q139L, Y217F -5HT3
T3 construct: expressed in transfected cells; host or cells: HEK 293

[4] = target: T4, α7^L131G,Q139L,Y217F-5HT3 W156N (Homo sapiens, UniProt P36544, L131G/M226I/Q139L/T225I/W156N/Y217F); experiment: cell-based
T4 construct: expressed in transfected cells; host or cells: HEK 293

[5] = target: T5, α7^L131G,Q139L,Y217F-5HT3 W156N, H163T (Homo sapiens, UniProt P36544, H163T/L131G/M226I/Q139L/T225I/W156N/Y217F); experiment: EC50 dose response, PSAM4-5HT3 with additional mutations; type: cell-based; conditions: read-out: EC50s (SEM) for additional mutations of α7^L131G, Q139L, Y217F -5HT3
T5 construct: expressed in transfected cells; host or cells: HEK 293

[6] = target: T6, α7^L131G,Q139L,Y217F-5HT3 H163A (Homo sapiens, UniProt P36544, H163A/L131G/M226I/Q139L/T225I/Y217F); experiment: as above; type: cell-based; conditions: additional mutation H163A; read-out: EC50s (SEM) for additional mutations of α7^L131G, Q139L, Y217F -5HT3
T6 construct: expressed in transfected cells; host or cells: HEK 293

[7] = target: T7, α7^L131G,Q139L,Y217F-5HT3 H163D (Homo sapiens, UniProt P36544, H163D/L131G/M226I/Q139L/T225I/Y217F); experiment: as above; type: cell-based; conditions: additional mutation H163D; read-out: EC50s (SEM) for additional mutations of α7^L131G, Q139L, Y217F -5HT3
T7 construct: expressed in transfected cells; host or cells: HEK 293

[8] = target: T8, α7^L131G,Q139L,Y217F-5HT3 H163F (Homo sapiens, UniProt P36544, H163F/L131G/M226I/Q139L/T225I/Y217F); experiment: as above; type: cell-based; conditions: additional mutation H163F; read-out: EC50s (SEM) for additional mutations of α7^L131G, Q139L, Y217F -5HT3
T8 construct: expressed in transfected cells; host or cells: HEK 293

[9] = target: T9, α7^L131G,Q139L,Y217F-5HT3 H163K (Homo sapiens, UniProt P36544, H163K/L131G/M226I/Q139L/T225I/Y217F); experiment: as above; type: cell-based; conditions: additional mutation H163K; read-out: EC50s (SEM) for additional mutations of α7^L131G, Q139L, Y217F -5HT3
T9 construct: expressed in transfected cells; host or cells: HEK 293

[10] = target: T10, α7^L131G,Q139L,Y217F-5HT3 H163N (Homo sapiens, UniProt P36544, H163N/L131G/M226I/Q139L/T225I/Y217F); experiment: as above; type: cell-based; conditions: additional mutation H163N; read-out: EC50s (SEM) for additional mutations of α7^L131G, Q139L, Y217F -5HT3
T10 construct: expressed in transfected cells; host or cells: HEK 293

[11] = target: T11, α7^L131G,Q139L,Y217F-5HT3 H163R (Homo sapiens, UniProt P36544, H163R/L131G/M226I/Q139L/T225I/Y217F); experiment: as above; type: cell-based; conditions: additional mutation H163R; read-out: EC50s (SEM) for additional mutations of α7^L131G, Q139L, Y217F -5HT3
T11 construct: expressed in transfected cells; host or cells: HEK 293

[12] = target: T12, α7^L131G,Q139L,Y217F-5HT3 H163S (Homo sapiens, UniProt P36544, H163S/L131G/M226I/Q139L/T225I/Y217F); experiment: as above; type: cell-based; conditions: additional mutation H163S; read-out: EC50s (SEM) for additional mutations of α7^L131G, Q139L, Y217F -5HT3
T12 construct: expressed in transfected cells; host or cells: HEK 293

[13] = target: T13, α7^L131G,Q139L,Y217F-5HT3 H163T (Homo sapiens, UniProt P36544, H163T/L131G/M226I/Q139L/T225I/Y217F); experiment: as above; type: cell-based; conditions: additional mutation H163T; read-out: EC50s (SEM) for additional mutations of α7^L131G, Q139L, Y217F -5HT3
T13 construct: expressed in transfected cells; host or cells: HEK 293

[14] = target: T14, α7^L131G,Q139L,Y217F-5HT3 H163V (Homo sapiens, UniProt P36544, H163V/L131G/M226I/Q139L/T225I/Y217F); experiment: as above; type: cell-based; conditions: additional mutation H163V; read-out: EC50s (SEM) for additional mutations of α7^L131G, Q139L, Y217F -5HT3
T14 construct: expressed in transfected cells; host or cells: HEK 293

[15] = target: T15, α7^L131G,Q139L,Y217F-5HT3 S172A (Homo sapiens, UniProt P36544, L131G/M226I/Q139L/S172A/T225I/Y217F); experiment: as above; type: cell-based; conditions: additional mutation S172A; read-out: EC50s (SEM) for additional mutations of α7^L131G, Q139L, Y217F -5HT3
T15 construct: expressed in transfected cells; host or cells: HEK 293

[16] = target: T16, α7^L131G,Q139L,Y217F-5HT3 H163T, S172A (Homo sapiens, UniProt P36544, H163T/L131G/M226I/Q139L/S172A/T225I/Y217F); experiment: as above; type: cell-based; conditions: read-out: EC50s (SEM) for additional mutations of α7^L131G, Q139L, Y217F -5HT3
T16 construct: expressed in transfected cells; host or cells: HEK 293

[17] = target: T17, α7^L131G,Q139L,Y217F-5HT3 V154I, R155Y, W156N, S172A (Homo sapiens, UniProt P36544, L131G/M226I/Q139L/R155Y/S172A/T225I/V154I/W156N/Y217F); experiment: as above; type: cell-based; conditions: read-out: EC50s (SEM) for additional mutations of α7^L131G, Q139L, Y217F -5HT3
T17 construct: expressed in transfected cells; host or cells: HEK 293

[18] = target: T18, α7^L131G,Q139L,Y217F-5HT3 V154I, R155Y, W156N, S172V (Homo sapiens, UniProt P36544, L131G/M226I/Q139L/R155Y/S172V/T225I/V154I/W156N/Y217F); experiment: as above; type: cell-based; conditions: read-out: EC50s (SEM) for additional mutations of α7^L131G, Q139L, Y217F -5HT3
T18 construct: expressed in transfected cells; host or cells: HEK 293

[19] = target: T19, α7^L131G,Q139L,Y217F-5HT3 H163T, S172V (Homo sapiens, UniProt P36544, H163T/L131G/M226I/Q139L/S172V/T225I/Y217F); experiment: as above; type: cell-based; conditions: read-out: EC50s (SEM) for additional mutations of α7^L131G, Q139L, Y217F -5HT3
T19 construct: expressed in transfected cells; host or cells: HEK 293

[20] = target: T20, α7^L131G,Q139L,Y217F-5HT3 S172I (Homo sapiens, UniProt P36544, L131G/M226I/Q139L/S172I/T225I/Y217F); experiment: as above; type: cell-based; conditions: additional mutation S172I; read-out: EC50s (SEM) for additional mutations of α7^L131G, Q139L, Y217F -5HT3
T20 construct: expressed in transfected cells; host or cells: HEK 293

[21] = target: T21, α7^L131G,Q139L,Y217F-5HT3 S172V (Homo sapiens, UniProt P36544, L131G/M226I/Q139L/S172V/T225I/Y217F); experiment: as above; type: cell-based; conditions: additional mutation S172V; read-out: EC50s (SEM) for additional mutations of α7^L131G, Q139L, Y217F -5HT3
T21 construct: expressed in transfected cells; host or cells: HEK 293

[22] = target: T22, α7-5HT3 L131G, Q139L, W171F (Homo sapiens, UniProt P36544, L131G/M226I/Q139L/T225I/W171F); experiment: EC50 dose response, α7-5HT3 mutant; type: cell-based; conditions: read-out: EC50s (SEM) for additional mutations of α7^L131G, Q139L, Y217F -5HT3
T22 construct: expressed in transfected cells; host or cells: HEK 293

[23] = target: T23, α7-5HT3 L131G, Q139L, W171Y (Homo sapiens, UniProt P36544, L131G/M226I/Q139L/T225I/W171Y); experiment: EC50 dose response, α7-5HT3 mutant; type: cell-based; conditions: read-out: EC50s (SEM) for additional mutations of α7^L131G, Q139L, Y217F -5HT3
T23 construct: expressed in transfected cells; host or cells: HEK 293

[24] = target: T24, α7-5HT3 L131G, Q139L, Y217A (Homo sapiens, UniProt P36544, L131G/M226I/Q139L/T225I/Y217A); experiment: EC50 dose response, α7-5HT3 mutant; type: cell-based; conditions: read-out: EC50s (SEM) for additional mutations of α7^L131G, Q139L, Y217F -5HT3
T24 construct: expressed in transfected cells; host or cells: HEK 293

[25] = target: T25, α7-5HT3 L131G, Q139L, Y217H (Homo sapiens, UniProt P36544, L131G/M226I/Q139L/T225I/Y217H); experiment: EC50 dose response, α7-5HT3 mutant; type: cell-based; conditions: read-out: EC50s (SEM) for additional mutations of α7^L131G, Q139L, Y217F -5HT3
T25 construct: expressed in transfected cells; host or cells: HEK 293

[26] = target: T26, α7-5HT3 L131G, Q139L, Y217N (Homo sapiens, UniProt P36544, L131G/M226I/Q139L/T225I/Y217N); experiment: EC50 dose response, α7-5HT3 mutant; type: cell-based; conditions: read-out: EC50s (SEM) for additional mutations of α7^L131G, Q139L, Y217F -5HT3
T26 construct: 5HT3 ion pore domain (fusion partner); expressed in transfected cells

[27] = target: T27, α7-5HT3 L131G, Q139L, Y217V (Homo sapiens, UniProt P36544, L131G/M226I/Q139L/T225I/Y217V); experiment: EC50 dose response, α7-5HT3 mutant; type: cell-based; conditions: read-out: EC50s (SEM) for additional mutations of α7^L131G, Q139L, Y217F -5HT3
T27 construct: 5HT3 ion pore domain (fusion partner); expressed in transfected cells; HEK 293 is named only for the electrophysiology

c1cnc2cc3c(cc2n1)[C@@H]1CNC[C@H]3C1 [Varenicline, varenicline, reference compound]
EC50 ([1]; PSAM4-5HT3 (no additional mutation)): 3.6 nM
EC50 ([1]; line L131G, Q139L, Y217F (same values as PSAM4-5HT3 line)): 3.6 nM
EC50 [2]: 8.5 nM
EC50 [3]: 7.5 nM
EC50 [4]: 7.5 nM
EC50 [5]: 9 nM
EC50 [6]: 5.4 nM
EC50 [7]: 3.8 nM
EC50 [8]: 6.1 nM
EC50 [9]: 5 nM
EC50 [10]: 3.6 nM
EC50 [11]: 6.1 nM
EC50 [12]: 6.4 nM
EC50 [13]: 24 nM
EC50 [14]: 7.3 nM
EC50 [15]: 4.9 nM
EC50 [16]: 5.7 nM
EC50 [17]: 11 nM
EC50 [18]: 13 nM
EC50 [19]: 9 nM
EC50 [20]: 15 nM
EC50 [21]: 3.8 nM
EC50 [22]: > 100 nM
EC50 [23]: > 100 nM
EC50 [24]: > 100 nM
EC50 [25]: > 100 nM
EC50 [26]: > 100 nM
EC50 [27]: > 100 nM

Like-named read-outs stand apart in the source and are kept apart here.
